# Results as given in publication PMC4789278, “Pharmacological inhibition of LSD1 for the treatment of MLL-rearranged leukemia” (Journal of Hematology & Oncology, 2016).
# Biological target: recombinant human LSD1 (Homo sapiens, UniProt O60341)
# Test: LSD1 enzyme inhibition assay (HRP/Amplex red)
# Format: biochemical
# Conditions: read-out: LSD1 IC50 (Table S1)
row,SMILES,IC50 [µM]
1,NNC1CC1c1ccc(Br)cc1 (centres unmarked),5.8

# Test system: MV4-11 leukemia cells
# Test: Antiproliferation assay (XTT), MV4-11
# Format: cell-based, human
# Conditions: read-out: MV4-11 EC50 (Table S1)
row,SMILES,EC50 [µM]
1,NC1CC1c1ccc(Br)cc1 (centres unmarked),> 50
2,c1ccc(C2CC2NCC2CCNCC2)cc1 (centres unmarked),0.13
3,NC1CC1c1ccc(OCc2ccccc2)cc1 (centres unmarked),6
4,CN1CCN(C(=O)CNC2CC2c2cccc(Br)c2)CC1 (centres unmarked),25
5,Brc1ccc(C2CC2NCc2ccccc2)cc1 (centres unmarked),25
6,O=C(CNC1CC1c1ccccc1)N1CCNCC1 (centres unmarked),0.28
7,O=C(CNC1CC1c1ccc(Br)cc1)N1CCNCC1 (centres unmarked),0.1
8,CC(=O)NC1CC1c1ccc(Br)cc1 (centres unmarked),40
9,NNC1CC1c1ccc(Br)cc1 (centres unmarked),42
10,O=C(CNC1CC1c1ccccc1)N1CCCCC1 (centres unmarked),2.5
